Test results reported in patent publication US10894038B2, “Indolizine derivatives, composition and methods of use” (Shanghai Fochon Pharmaceutical Co., Ltd., priority 2015, dated 2021).
pIC50: −log10 of the molar value.

The chains behind the UniProt entries cited, without tags or fusion partners.
UniProt Q96S37, whole entry: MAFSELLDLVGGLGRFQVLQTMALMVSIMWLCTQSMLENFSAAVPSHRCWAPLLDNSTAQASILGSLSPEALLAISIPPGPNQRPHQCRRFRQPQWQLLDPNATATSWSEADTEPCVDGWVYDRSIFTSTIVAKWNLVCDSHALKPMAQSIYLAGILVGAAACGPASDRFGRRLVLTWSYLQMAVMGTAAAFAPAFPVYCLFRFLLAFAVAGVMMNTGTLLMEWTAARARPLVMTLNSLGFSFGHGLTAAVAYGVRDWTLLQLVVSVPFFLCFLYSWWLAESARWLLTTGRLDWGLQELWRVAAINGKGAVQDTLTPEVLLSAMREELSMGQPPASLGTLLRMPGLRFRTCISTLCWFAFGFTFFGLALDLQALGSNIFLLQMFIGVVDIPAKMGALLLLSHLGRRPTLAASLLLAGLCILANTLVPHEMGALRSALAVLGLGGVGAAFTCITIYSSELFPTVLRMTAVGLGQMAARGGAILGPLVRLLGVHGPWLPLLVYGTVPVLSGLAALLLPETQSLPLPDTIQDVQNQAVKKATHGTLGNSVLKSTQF

Target: URAT1 (Homo sapiens (Human), UniProt Q96S37)
Test: URAT1 in vitro inhibition activity, Method B (14C-uric acid uptake in HEK293-URAT1 cells)
Details: 5.0 μmol/L 14C-uric acid, 2 min uptake
Method: HEK293-URAT1 cell Lines were donated by Japan Fuji Biomedical Research Institute. Negative control cell of HEK293 (MOCK cells) which was transfected with pcDNA3.1 empty vector. HEK293-URAT1 cell lines and MOCK cell lines were cultured in complete growth medium consisting of DMEM supplemented with 10% FBS, penicillin and streptomycin.
Preparation of working solution: Each stock solutions was diluted to different concentrations (6, 20, 60, 200 and 600 μmol/L) with DMSO as 200× working solution, which was then diluted to 2×compound working solution with HBSS (Cl^− free) buffer. […]
HER293-URAT1 and MOCK cells were seeded onto 24-well plates at the density of 1.5×10^6 cells per well. […] 400 μL NaOH (0.1 mmol/L) was added to lyse the cells and the cell lysate was collected to scintillation vials, and 3 ml scintillant (Aquasol-2, PerkinElmer) was added and after mixing completely, the radioactivity was counted by Tri-Carb 2910TR liquid scintillation counter. […] Inhibition % data were calculated using the formula: Inhibition=[100×(U−U0)/(Uc−U0)]%, and analyzed using Prism5 software. […]
Uc: Average of signals of radiolabeled substrate. The half inhibition concentration of the tested compounds to URAT1 were analyzed using Prism 5 software.

- pIC50: 7.47
SMILES: N#Cc1ccc(-c2cnccc2SC2(C(=O)O)CCC2)n2ccc(Cl)c12
